Earlier results on 1 molecule are cited in patent US6118050A, “Hydroxyphenylpyruvate dioxygenase gene from arabidopsis and method of screening for inhibitors thereof” (American Cyanamid Company, priority 1997, dated 2000).

The test system of the data set is HPPD. To be noted: hereditary tyrosinemia type 1 (Ellis et al., 1995); cited from earlier work.

For the molecule `O=C1CCCC(=O)C1C(=O)c1ccc(C(F)(F)F)cc1[N+](=O)[O-]` [NTBC, 2-(2-nitro-4-trifluoromethylbenzoyl)-1,3-cyclohexanedione], the “effect on intermediates of tyrosine catabolism that are hepatotoxic” value was “prevents the buildup”.
